{
  "sequences": {"note": "Protein sequences, listed by entry. Tags and fused reporters are not part of them.", "UniProt P23977, whole entry": "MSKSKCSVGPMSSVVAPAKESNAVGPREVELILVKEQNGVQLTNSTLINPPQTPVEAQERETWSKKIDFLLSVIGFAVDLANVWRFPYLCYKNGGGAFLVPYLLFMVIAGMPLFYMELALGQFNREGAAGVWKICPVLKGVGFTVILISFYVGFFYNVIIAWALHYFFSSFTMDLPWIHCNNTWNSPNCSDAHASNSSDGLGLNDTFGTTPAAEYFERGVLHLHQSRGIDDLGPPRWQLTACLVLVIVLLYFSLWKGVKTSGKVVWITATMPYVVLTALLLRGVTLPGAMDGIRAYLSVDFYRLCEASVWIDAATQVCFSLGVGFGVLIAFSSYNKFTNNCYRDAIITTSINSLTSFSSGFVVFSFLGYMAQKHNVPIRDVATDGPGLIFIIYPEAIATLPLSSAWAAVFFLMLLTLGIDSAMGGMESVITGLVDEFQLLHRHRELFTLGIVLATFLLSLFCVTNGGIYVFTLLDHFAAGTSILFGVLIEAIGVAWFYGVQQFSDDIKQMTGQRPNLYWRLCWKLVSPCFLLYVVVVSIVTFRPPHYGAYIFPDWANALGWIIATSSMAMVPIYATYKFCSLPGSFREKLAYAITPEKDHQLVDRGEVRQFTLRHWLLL"},
  "source": "ChEMBL document CHEMBL1127448",
  "about": "“Synthesis, ligand binding, and QSAR (CoMFA and classical) study of 3 beta-(3'-substituted phenyl)-, 3 beta-(4'-substituted phenyl)-, and 3 beta-(3',4'-disubstituted phenyl)tropane-2 beta-carboxylic acid methyl esters” (J Med Chem, 1994)",
  "biological_target": "Sodium-dependent dopamine transporter (Rattus norvegicus, UniProt P23977)",
  "assay": "Concentration required to inhibit 50% of radioligand binding ([3H]WIN-35428) to the dopamine (DA) transporter in rat",
  "data": [
    {"smiles": "COC(=O)[C@@H]1C2CC[C@H](C[C@@H]1c1ccc(OC)cc1)N2C", "values": [
      {"measurement": "IC50", "value": 9.2, "unit": "nM"}
    ]}
  ]
}
